One assay deals with Y641N EZH2 (Homo sapiens, UniProt Q15910, Y641N). Nature of the assay: Assay for Y641N EZH2 (as the EZH2 assay, H3K27Me2 oligonucleosomes as substrate). The settings on record: Y641N EZH2 mutant, reconstituted H3K27Me2 oligonucleosomes as substrate; for IC50: read-out: Y641N EZH2 IC50. On the procedure:
(§1) EZH2 Assay: Assays were carried out by mixing rPRC2 together with biotinylated oligonucleosome substrates in the presence of the radio-labeled enzyme co-factor, S-adenosyl-L-methionine (^3H SAM) (Perkin Elmer) and monitoring the enzymatically mediated transfer of tritiated methyl groups from ^3H SAM to histone lysine residues. The amount of resulting tritiated methyl histone product was measured by first capturing the biotinylated oligonucleosomes in streptavidin (SAV) coated FlashPlates (Perkin Elmer), followed by a wash step to remove unreacted ^3H SAM, and then counting on a TopCount NXT 384 well plate scintillation counter (Perkin Elmer). The final assay conditions for EZH2 were as follows: 50 mM Tris Buffer pH 8.5, 1 mM DTT, 69 μM Brij-35 detergent, 5.0 mM MgCl2, 0.1 mg/mL BSA, 0.2 μM ^3H SAM, 0.2 μM biotinylated oligonucleosomes, 3.6 μM H3K27me3 peptide and 2 nM EZH2.
(§2) Compound IC50 measurements were obtained as follows: Compounds were first dissolved in 100% DMSO as 10 mM stock solutions. Ten point dose response curves were generated by dispensing varying amounts of the 10 mM compound solution in 10 wells of the 384 well plate (Echo; Labcyte), pure DMSO was then used to backfill the wells to insure all wells have the same amount of DMSO. A 12.5 μL volume of the HMT enzyme, H3K27me3 peptide and oligonucleosome substrate in assay buffer was added to each well of the assay plate using a Multidrop Combi (ThermoFisher). Compounds were pre-incubated with the enzyme for 20 min, followed by initiation of the methyltransferase reaction by addition of 12.5 μL of ^3H SAM in assay buffer (final volume=25 μL). The final concentrations of compounds ranged from a top default concentration of 80 μM down to 0.16 μM in ten 2-fold dilution steps. Reactions were carried out for 60 minutes and quenched with 20 μL per well of 1.96 mM SAH, 50 mM Tris pH 8.5, 200 mM EDTA. […]

The chains behind the UniProt entries cited, without tags or fusion partners. Where a name states a change or a piece, a line headed by the entry shows the natural chain unless it says otherwise.
UniProt Q15910, whole entry: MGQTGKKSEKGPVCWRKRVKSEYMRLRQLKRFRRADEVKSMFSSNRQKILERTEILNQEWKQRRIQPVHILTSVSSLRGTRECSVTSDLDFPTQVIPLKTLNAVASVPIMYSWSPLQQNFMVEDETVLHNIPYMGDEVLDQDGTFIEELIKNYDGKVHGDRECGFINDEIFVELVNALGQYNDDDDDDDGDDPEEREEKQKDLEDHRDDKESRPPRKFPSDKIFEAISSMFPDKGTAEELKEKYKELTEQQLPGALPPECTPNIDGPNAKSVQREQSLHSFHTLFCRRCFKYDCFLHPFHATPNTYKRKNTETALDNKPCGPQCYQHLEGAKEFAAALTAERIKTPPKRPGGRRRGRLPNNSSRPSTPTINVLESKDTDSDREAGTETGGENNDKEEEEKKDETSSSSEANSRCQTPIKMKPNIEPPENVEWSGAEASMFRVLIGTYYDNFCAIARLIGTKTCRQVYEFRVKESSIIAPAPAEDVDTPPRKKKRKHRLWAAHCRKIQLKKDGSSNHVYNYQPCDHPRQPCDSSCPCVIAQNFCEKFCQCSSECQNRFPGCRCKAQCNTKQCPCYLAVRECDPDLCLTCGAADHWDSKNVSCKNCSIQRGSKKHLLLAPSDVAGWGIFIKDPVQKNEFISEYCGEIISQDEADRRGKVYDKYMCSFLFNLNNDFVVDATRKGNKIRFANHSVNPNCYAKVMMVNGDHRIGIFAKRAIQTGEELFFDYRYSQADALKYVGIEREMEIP
UniProt Q15910, whole entry Y641N: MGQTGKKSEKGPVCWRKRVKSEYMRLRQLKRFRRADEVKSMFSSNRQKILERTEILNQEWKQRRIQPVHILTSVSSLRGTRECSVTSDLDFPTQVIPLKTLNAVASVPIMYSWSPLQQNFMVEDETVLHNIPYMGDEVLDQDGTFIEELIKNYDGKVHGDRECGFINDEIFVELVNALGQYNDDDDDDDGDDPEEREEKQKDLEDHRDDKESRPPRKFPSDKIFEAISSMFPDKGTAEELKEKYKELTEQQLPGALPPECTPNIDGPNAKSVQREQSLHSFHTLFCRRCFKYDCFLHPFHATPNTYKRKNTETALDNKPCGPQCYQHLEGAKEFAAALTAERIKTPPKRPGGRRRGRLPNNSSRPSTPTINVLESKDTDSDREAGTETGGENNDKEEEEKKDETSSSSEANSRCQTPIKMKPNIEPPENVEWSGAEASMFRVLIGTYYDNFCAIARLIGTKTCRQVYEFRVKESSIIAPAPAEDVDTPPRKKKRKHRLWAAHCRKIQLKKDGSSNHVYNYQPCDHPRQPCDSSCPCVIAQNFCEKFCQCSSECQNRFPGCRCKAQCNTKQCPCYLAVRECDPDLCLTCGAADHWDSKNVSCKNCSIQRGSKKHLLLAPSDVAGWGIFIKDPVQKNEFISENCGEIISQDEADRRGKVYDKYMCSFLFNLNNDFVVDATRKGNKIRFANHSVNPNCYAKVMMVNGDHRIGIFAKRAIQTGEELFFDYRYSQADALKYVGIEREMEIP
UniProt O75530, whole entry partner: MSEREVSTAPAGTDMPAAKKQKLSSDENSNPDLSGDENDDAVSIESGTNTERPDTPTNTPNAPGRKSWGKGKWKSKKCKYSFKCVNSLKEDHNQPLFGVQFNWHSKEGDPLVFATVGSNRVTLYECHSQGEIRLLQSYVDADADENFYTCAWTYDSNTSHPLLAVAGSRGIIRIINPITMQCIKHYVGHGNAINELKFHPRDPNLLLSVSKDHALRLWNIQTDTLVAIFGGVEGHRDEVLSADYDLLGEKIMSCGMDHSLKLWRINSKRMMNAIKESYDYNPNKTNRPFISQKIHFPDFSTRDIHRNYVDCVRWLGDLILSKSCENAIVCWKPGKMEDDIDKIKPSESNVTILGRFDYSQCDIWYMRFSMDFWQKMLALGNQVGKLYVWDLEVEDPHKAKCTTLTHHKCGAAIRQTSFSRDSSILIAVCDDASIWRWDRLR
UniProt Q15022, whole entry partner: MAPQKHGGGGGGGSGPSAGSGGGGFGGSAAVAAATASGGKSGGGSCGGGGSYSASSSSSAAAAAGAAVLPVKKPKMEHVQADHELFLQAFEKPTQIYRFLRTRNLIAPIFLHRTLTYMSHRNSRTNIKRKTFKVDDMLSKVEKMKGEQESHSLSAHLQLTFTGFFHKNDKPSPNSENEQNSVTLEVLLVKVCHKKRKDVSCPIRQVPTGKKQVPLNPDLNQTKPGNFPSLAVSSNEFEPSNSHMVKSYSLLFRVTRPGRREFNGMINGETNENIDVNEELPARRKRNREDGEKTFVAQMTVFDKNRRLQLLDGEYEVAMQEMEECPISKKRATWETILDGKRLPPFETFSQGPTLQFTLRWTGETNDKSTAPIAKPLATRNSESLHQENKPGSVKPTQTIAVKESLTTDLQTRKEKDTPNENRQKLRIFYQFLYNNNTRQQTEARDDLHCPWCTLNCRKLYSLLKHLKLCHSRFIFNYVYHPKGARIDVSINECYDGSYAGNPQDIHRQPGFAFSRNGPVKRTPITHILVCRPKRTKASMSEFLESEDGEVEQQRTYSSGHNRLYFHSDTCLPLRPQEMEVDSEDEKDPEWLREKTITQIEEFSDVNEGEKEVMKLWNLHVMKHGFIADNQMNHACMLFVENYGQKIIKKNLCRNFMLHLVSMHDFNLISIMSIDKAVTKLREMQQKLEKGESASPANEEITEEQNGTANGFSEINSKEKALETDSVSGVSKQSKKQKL

The target in a further assay is EZH2 (Homo sapiens, UniProt Q15910). Nature of the assay: EZH2 Assay (3H SAM methyl transfer, rPRC2, FlashPlate). The following applies: rPRC2, biotinylated oligonucleosomes, 0.2 μM 3H SAM, 2 nM EZH2; for IC50: read-out: EZH2 IC50. On the procedure:
as §1, §2

Assay [1] concerns H3K27me3 mark in Hela cells expressing wild type EZH2. Nature of the assay: H3K27me3 MSD Hela Assay. The settings on record: read-out: H3K27me3_MSD_HeLa (EC50), 96 hours. Here is the method:
H3K27me3 MSD Hela Assay. Trypsinized HeLa cells were counted and diluted in 10% DMEM (Life Technologies, Cat. #10569) to 5000 cells/75 μL. Seventy-five μL of cells were place in each well of a 96-well flat-bottomed plate and incubated at 37° C. for 4 hours. Twenty-five μL of test compound (at various concentrations) was added to the cells and incubation continued at 37° C. for 96 hours. Media was then removed and the cells rinsed once with ice cold PBS. Forty μL of ice-cold MSD Buffer AT (10 mM HEPES, pH 7.9, 5 mM MgCl2, 0.25M sucrose, Benzonase (1:10000), 1% Triton X-100 supplemented with fresh 1× Protease Inhibitor cocktail and 1 mM 4-(2-Aminoethyl)benzenesulfonyl fluoride hydrochloride (AEBSF)) was added to each well and the plates placed on ice for 30 minutes. Ten μL of 5M NaCl was then added to each well and incubation on ice continued for another 15 minutes. […]
The antibody mix was then removed and the wells washed with Blocker A. One hundred-fifty μL of freshly prepared 1×MSD Read Buffer (Meso-Scale Discovery; Cat #R927C-2) was then added to each well and the plates read on a MSD Sector 2400 Plate Reader.
Data was analyzed using Assay Assistant (Constellation Pharmaceuticals In-house product) and Activity Base (IDBS Ltd, Surrey, UK) template. […] Readout of DMSO wells were used to normalize the data. […]

A value given as a limit tells only on which side of the number the result lay.

As usually defined, the IC50 is the concentration at which inhibition is half-maximal. For orientation: EC50 means the midpoint of the concentration-response curve.

With `COc1cc(C)[nH]c(=O)c1CNC(=O)c1c(C)c(-c2nn(C)cc2C)n2ncccc12`, the “Y641N EZH2 IC50” value at Y641N EZH2 is given as “*(0.5 μM)”. Besides, the “EZH2 IC50” value at EZH2 was “*(0.5 μM)”.
Regarding `COc1cc(C)[nH]c(=O)c1CNC(=O)c1c(C)c(C(C)C2CCOCC2)n2ccncc12` (racemic), the IC50 on Y641N EZH2 and on EZH2 was below 100 nM each time. Besides, the half-maximal effective concentration (EC50) in assay [1] was below 400 nM.
For the compound `CCS(=O)(=O)N1CCC(C(C)c2c(C)c(C(=O)NCc3c(OC)cc(C)[nH]c3=O)c3cccnn23)CC1` (racemic), the concentration for half-maximal inhibition (IC50) at Y641N EZH2 and on EZH2 was below 100 nM in each case.

Source of the values: US9745305B2, “Modulators of methyl modifying enzymes, compositions and uses thereof” (Constellation Pharmaceuticals, Inc., priority 2013, dated 2017).
